# According to US7329652B2, “Diaminotriazole compounds useful as protein kinase inhibitors” (Vertex Pharamaceuticals Incorporated, priority 2004, dated 2008):
# Amino acid sequences for entries named in this document (tags omitted).
# UniProt O60674, whole entry: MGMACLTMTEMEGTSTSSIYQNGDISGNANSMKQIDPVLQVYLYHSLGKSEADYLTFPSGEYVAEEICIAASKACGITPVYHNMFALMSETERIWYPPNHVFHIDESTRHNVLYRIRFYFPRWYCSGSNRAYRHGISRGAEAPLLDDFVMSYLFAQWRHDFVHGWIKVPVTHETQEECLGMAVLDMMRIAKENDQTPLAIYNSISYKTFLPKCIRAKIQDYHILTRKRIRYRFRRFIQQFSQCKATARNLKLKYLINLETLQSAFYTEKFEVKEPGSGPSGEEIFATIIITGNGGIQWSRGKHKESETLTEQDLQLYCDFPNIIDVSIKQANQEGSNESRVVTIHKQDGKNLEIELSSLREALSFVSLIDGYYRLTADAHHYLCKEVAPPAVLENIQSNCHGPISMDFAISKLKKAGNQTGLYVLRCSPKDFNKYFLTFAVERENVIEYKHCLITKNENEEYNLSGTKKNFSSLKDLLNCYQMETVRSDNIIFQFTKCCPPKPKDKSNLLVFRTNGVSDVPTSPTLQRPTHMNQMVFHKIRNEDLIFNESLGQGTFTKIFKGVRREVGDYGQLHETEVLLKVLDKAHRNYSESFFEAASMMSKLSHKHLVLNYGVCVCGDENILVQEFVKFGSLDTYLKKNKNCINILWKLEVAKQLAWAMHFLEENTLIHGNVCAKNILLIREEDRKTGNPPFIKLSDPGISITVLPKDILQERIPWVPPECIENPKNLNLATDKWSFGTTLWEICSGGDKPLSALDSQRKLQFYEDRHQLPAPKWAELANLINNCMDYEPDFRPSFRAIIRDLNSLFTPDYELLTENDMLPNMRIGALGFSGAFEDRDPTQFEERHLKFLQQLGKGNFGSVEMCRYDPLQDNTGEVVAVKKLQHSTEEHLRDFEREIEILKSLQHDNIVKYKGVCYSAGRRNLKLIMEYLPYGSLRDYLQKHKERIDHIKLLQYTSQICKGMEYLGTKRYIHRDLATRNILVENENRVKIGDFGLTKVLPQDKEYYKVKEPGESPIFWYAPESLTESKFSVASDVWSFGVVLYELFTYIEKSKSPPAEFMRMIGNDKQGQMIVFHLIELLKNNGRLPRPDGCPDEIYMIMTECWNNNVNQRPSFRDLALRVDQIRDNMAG
# UniProt P52333, whole entry: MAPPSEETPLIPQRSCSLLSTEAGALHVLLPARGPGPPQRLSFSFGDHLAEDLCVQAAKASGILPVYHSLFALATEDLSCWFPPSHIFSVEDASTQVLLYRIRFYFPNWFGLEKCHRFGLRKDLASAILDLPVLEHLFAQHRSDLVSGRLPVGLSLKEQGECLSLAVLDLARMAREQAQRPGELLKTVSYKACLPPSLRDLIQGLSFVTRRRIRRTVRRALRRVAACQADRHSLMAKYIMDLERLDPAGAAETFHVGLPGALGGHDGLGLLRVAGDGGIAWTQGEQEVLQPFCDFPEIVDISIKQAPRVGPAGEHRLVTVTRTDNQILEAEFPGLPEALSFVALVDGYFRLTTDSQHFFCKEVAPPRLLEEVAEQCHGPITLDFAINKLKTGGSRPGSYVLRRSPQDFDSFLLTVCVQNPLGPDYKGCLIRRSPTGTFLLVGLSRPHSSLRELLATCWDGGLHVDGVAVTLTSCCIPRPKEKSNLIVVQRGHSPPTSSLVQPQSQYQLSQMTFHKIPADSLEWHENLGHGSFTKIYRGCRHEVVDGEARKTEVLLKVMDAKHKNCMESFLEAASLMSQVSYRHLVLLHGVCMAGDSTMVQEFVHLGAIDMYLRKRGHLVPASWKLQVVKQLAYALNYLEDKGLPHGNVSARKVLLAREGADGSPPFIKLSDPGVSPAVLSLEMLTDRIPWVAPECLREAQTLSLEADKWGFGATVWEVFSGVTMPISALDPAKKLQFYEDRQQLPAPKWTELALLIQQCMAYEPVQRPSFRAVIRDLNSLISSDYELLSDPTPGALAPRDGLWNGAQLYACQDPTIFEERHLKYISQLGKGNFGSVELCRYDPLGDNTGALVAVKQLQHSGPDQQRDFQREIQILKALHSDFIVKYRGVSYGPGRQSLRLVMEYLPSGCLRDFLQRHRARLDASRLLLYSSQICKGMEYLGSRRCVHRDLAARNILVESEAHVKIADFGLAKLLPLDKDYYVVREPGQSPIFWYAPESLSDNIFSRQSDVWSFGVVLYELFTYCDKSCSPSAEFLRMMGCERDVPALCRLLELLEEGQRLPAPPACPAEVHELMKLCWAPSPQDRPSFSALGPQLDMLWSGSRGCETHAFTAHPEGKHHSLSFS
# Columns and labels:
# [1] = target: JAK-2 enzyme (Homo sapiens, UniProt O60674); assay: JAK2 inhibition assay (radiometric 33P filter assay); type: biochemical; settings: read-out: JAK2 inhibition data (Ki); 15 μM poly(Glu)4Tyr, 12 μM ATP
# Method: (§1) Compounds were screened for their ability to inhibit JAK using the assay shown below. Reactions were carried out in a kinase buffer containing 100 mM HEPES (pH 7.4), 1 mM DTT, 10 mM MgCl2, 25 mM NaCl, and 0.01% BSA.
# (§2) Substrate concentrations in the assay were 5 μM ATP (200 uCi/μmole ATP) and 1 μM poly(Glu)4Tyr. Reactions were carried out at 25° C. and 1 nM JAK3.
# (§3) To each well of a 96 well polycarbonate plate was added 1.5 μl of a candidate JAK3 inhibitor along with 50 μl of kinase buffer containing 2 μM poly(Glu)4Tyr and 10 μM ATP. This was then mixed and 50 μl of kinase buffer containing 2 nM JAK3 enzyme was added to start the reaction. After 20 minutes at room temperature (25° C.), the reaction was stopped with 50 μl of 20% trichloroacetic acid (TCA) that also contained 0.4 mM ATP. The entire contents of each well were then transferred to a 96 well glass fiber filter plate using a TomTek Cell Harvester. After washing, 60 μl of scintillation fluid was added and ^33P incorporation detected on a Perkin Elmer TopCount.
# The assays were as described above in Example 25 except that JAK-2 enzyme was used, the final poly(Glu)4Tyr concentration was 15 μM, and final ATP concentration was 12 μM.
# [2] = target: JAK3 (Homo sapiens, UniProt P52333); assay: JAK3 inhibition assay (radiometric 33P filter assay); type: biochemical; settings: read-out: JAK3 inhibition data (Ki); 1 μM poly(Glu)4Tyr, 5 μM ATP, 1 nM JAK3, 25° C.
# Method: as §1, §2, §3
smiles,measurement,setting,value
CC(=O)N1CCCN(c2cc(-n3nc(Nc4ccc(NC(=O)OC(C)C)cc4)nc3N)ccn2)CC1,pKi,[1],6.30 to 7.30
same,pKi,[2],> 7.30

# pKi: −log10 of the molar value.
